Source: PMC12241124 (Frontiers in Microbiology, 2025)
≈ marks a conversion by molar mass, not a printed value.

What was measured:
[1] = test system: methicillin-resistant S. aureus (MRSA) clinical isolates; assay type: cell-based, Staphylococcus aureus
[2] = test system: methicillin-susceptible S. aureus clinical isolates; assay type: cell-based, Staphylococcus aureus
[3] = pH 5.5, ref Boge et al., 2018; cited from earlier work
Source text: The peptide NZ2114 ([…]) was manufactured by solid phase peptide synthesis, followed by cyclisation of three natural occurring di-sulphide bonds and purification by sequential chromatography steps (PolyPeptide Laboratories AB, Limhamn, Sweden). The purity (>97%) of the peptide was confirmed by high-performance liquid chromatography. The peptide has a molecular weight of 4,411 Da and net charge +4.6 at pH 5.5 ([Boge et al., 2018]).

[4] = test system: Mycobacterium bovis BCG
[5] = test system: BCG in primary human macrophages; assay type: cell-based, Mycobacterium bovis
[6] = test system: M. abscessus clinical isolates; assay type: cell-based, Mycobacterium abscessus

In the case of `CC[C@H](C)[C@@H]1NC(=O)[C@H](CO)NC(=O)[C@H](CCCCN)NC(=O)[C@@H]2CSSC[C@@H](C(=O)N[C@@H](Cc3ccc(O)cc3)C(=O)O)NC(=O)[C@H](CCCCN)NC(=O)[C@@H]3CSSC[C@H](NC(=O)[C@H](CCCNC(=N)N)NC(=O)[C@H](CC(C)C)NC(=O)[C@H](CC(=O)O)NC(=O)[C@H](CC(=O)O)NC(=O)[C@H](CCC(=O)O)NC(=O)[C@H](CC(N)=O)NC(=O)[C@H](Cc4c[nH]c5ccccc45)NC(=O)[C@@H]4CCCN4C(=O)CNC(=O)[C@H](CC(N)=O)NC(=O)[C@@H](NC(=O)CNC(=O)[C@H](Cc4ccccc4)NC(=O)CN)CSSC[C@H](NC(=O)[C@H](Cc4ccc(O)cc4)NC(=O)CNC(=O)CNC(=O)[C@H](CCCCN)NC(=O)[C@H](Cc4ccc(O)cc4)NC(=O)CNC(=O)[C@H](CCCCN)NC1=O)C(=O)N[C@@H](C)C(=O)N[C@@H](CCCCN)C(=O)NCC(=O)NCC(=O)N[C@@H](Cc1ccccc1)C(=O)N[C@@H](C(C)C)C(=O)N3)C(=O)N[C@@H](Cc1c[nH]cn1)C(=O)N[C@@H](CC(N)=O)C(=O)N[C@@H](Cc1c[nH]cn1)C(=O)N2` [NZ2114], the MIC99 [1] is given as 0.3 µM (≈ 1.32 µg/mL), the MIC99 [2] is given as 0.3 µM (≈ 1.32 µg/mL) and the net charge [3] is given as “+4.6”. The MIC90 [4] was 6.1 µM (≈ 26.9 µg/mL), the “maximum reduction in intracellular bacterial load” value [5] was 89% and the “MIC99 (mean)” value [6] was 75 µM (≈ 331 µg/mL).
